Earlier results in paper PMC7081907, “Discovery and Selection of Hepatitis B Virus-Derived T Cell Epitopes for Global Immunotherapy Based on Viral Indispensability, Conservation, and HLA-Binding Strength” (Journal of Virology, 2020).

Test system: HBV-specific T cells
Conditions: cumulative over papers, responder = positive multimer staining and/or IFN-γ ELISPOT, ref Hepitopes database [24], [49], cited from earlier work; for % responders (no. of responders/total no. of subjects tested), HCC: HBV-positive HCC patients
Excerpt: TABLE 1 Ranking of reported epitopes for HBx based on conservation and function^a | column: % responders (no. of responders/total no. of subjects tested) / Acute; % responders (no. of responders/total no. of subjects tested) / Chronic; % responders (no. of responders/total no. of subjects tested) / HCC || TABLE 2 Ranking of reported epitopes for polymerase based on conservation and function^a | column: % responders (no. of responders/total no. of subjects tested) / Acute; % responders (no. of responders/total no. of subjects tested) / Chronic; % responders (no. of responders/total no. of subjects tested) / HCC
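Note: responder rates refer to previously reported epitopes of HBx or polymerase.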

| Sequence | % responders (no. of responders/total no. of subjects tested), HCC | % responders (no. of responders/total no. of subjects tested), Acute (patients with acute/resolved HBV infection, asterisk = significantly more prevalent than in other groups) |
| --- | --- | --- |
| FLLAQFTSAI | 0 (0/10) % |  |
| FPHCLAFSYM |  | 0 (0/12) % |
| KLHLYSHPI [p500-508] | 0 (0/10) % |  |
| LLAQFTSAI | 0 (0/10) % |  |
